Data taken from ChEMBL document CHEMBL1155915, “Anticonvulsant activity of some xanthone derivatives” (Bioorg Med Chem, 2008).

Species: Mus musculus
Test: Protective index, ratio of TD50 for mouse by rotarod test to ED50 for mouse by scMET test
Format: functional

## CCCC(CCC)C(=O)[O-].[Na+] [VALPROATE SODIUM]
  PI: 2.3
